Test results reported in ChEMBL document CHEMBL3797035 (Bioorg Med Chem, 2016).

Amino acid sequences for entries named in this document (tags omitted).
UniProt P14416, whole entry: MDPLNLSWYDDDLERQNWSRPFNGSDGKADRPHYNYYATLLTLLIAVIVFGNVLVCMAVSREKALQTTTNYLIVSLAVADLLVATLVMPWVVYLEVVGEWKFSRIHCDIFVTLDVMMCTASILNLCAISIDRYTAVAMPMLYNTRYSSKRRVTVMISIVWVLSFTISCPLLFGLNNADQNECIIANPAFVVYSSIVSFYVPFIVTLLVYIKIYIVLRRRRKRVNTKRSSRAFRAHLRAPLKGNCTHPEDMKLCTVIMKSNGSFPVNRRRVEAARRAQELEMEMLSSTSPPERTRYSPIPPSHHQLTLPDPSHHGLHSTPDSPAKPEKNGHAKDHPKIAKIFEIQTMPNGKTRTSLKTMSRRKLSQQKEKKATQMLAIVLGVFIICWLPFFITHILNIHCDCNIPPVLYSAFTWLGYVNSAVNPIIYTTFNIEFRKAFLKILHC

Biological target: D(2) dopamine receptor (Homo sapiens, UniProt P14416)
Test: biochemical
Assay type: cell-based, CHO

In the case of `CCCN(CCC)[C@H]1CCc2c(O)cccc2C1`, the Ki is reported as 7.1 nM.
